Reference: patent US20250145564A1, “SULFONYLUREA COMPOUND, PREPARATION METHOD THEREFOR, AND APPLICATION THEREOF” (SHANGHAI INSTITUTE OF MATERIA MEDICA, CHINESE ACADEMY OF …, priority 2021, published 2025)

Protein sequences, listed by entry. Tags and fused reporters are not part of them.
UniProt P34913, whole entry: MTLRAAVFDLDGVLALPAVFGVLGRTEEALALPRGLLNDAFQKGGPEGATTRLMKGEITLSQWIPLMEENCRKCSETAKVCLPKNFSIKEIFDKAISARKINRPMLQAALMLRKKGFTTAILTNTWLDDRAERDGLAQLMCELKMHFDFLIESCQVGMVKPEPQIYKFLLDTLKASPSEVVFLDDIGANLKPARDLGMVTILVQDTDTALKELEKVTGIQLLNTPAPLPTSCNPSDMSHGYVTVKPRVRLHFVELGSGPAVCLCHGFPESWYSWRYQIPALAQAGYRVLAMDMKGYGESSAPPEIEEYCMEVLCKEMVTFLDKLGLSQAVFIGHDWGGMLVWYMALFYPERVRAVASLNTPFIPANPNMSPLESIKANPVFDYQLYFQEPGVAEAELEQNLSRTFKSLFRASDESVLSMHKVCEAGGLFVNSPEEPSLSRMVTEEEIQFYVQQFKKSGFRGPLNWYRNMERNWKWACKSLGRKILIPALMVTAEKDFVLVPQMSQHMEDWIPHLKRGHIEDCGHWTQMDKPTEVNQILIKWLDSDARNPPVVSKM

Biological target: sEH (human recombinant) (Homo sapiens, UniProt P34913)
Experiment: sEH inhibition assay (fluorescence);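 further: enzyme preincubated with compound 30 min at 25 °C, then substrate added and fluorescence read after 15 min at 25 °C, 320 nm and 460 nm, versus DMSO negative control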
Conditions: read-out: Inhibitory activity (IC50) on sEH, 25° C.

Compound	IC50 [nM]
CCC1=C(C)CN(C(=O)NCCc2ccc(S(=O)(=O)NC(=O)N[C@H]3CC[C@H](C(=O)OC(C)C)CC3)cc2)C1=O	200 to 1000
CCC1=C(C)CN(C(=O)NCCc2ccc(S(=O)(=O)N(C)C(=O)N[C@H]3CC[C@H](COC(=O)CN(C)C)CC3)cc2)C1=O	200 to 1000
CCC1=C(C)CN(C(=O)NCCc2ccc(S(=O)(=O)N(C)C(=O)N[C@H]3CC[C@H](C(=O)OC(C)OC(=O)OC4CCCCC4)CC3)cc2)C1=O (stereo partly drawn)	10000 to 100000
